A selection: hits, their analogues and other compounds. The true share with any hit is near 2.8%.
MITF TRPM1 HTS: increases MITF-driven TRPM1 promoter luciferase signal | SK-MEL-5 TRPM1-promoter luciferase, 24 h; % of positive control, neutral wells = 0 | activation, % at 12.5 µM | actives 0.75% (n = 300,000);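 active means mean activation of at least 80% with every replicate also reaching 80%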
PglD DTNB: blocks C. jejuni PglD acetyltransferase activity | purified PglD enzyme, DTNB colorimetric CoA detection | inhibition, % at 12.5 µM | actives 0.098% (n = 360,000) | AID 602405; in the data active means inhibition above about 16%, passing the limit was not always enough
Yeast UUG start: yeast start codon fidelity modulation | S. cerevisiae UUG-firefly luciferase reporter, luminescence/redox ratio | activity score, % at 18.7 µM | hit rate 0.13% among 350,000 | AID 602363;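 active means replicate mean at a twofold rise or more, about +100% in these data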;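 further: firefly luciferase made from a UUG start codon reports start codon fidelity; reporter light over untreated wells divided by growth signal over untreated wells; some hits fall short of that in this replicate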
esBAF inh: inhibitors of esBAF chromatin remodeling in mouse ES cells. Bmi1-luciferase knock-in reporter, 24 h; 100% = twice the neutral-well signal. reporter increase, % at 12.5 µM. actives 2% (n = 350,000). AID 602393; in the data active means activation above about 40%;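 further: a rise in the Bmi1 reporter signal indicates esBAF inhibition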
Wnt bcat act: Wnt/beta-catenin pathway activation | Wnt/beta-catenin reporter cell assay, activator, plate reader | activation, % at 9.35 µM | actives 1.2% (n = 300,000); in the data active means activation above about 30%, passing the limit was not always enough
miR-122 sensor: miR-122 inhibition in Huh7 cells; actives 0.3% (n = 340,000); Huh7 miR-122 Renilla luciferase sensor, 48 h; neutral wells = 0, positive control = 100; activation (reporter increase), % at 12.5 µM; AID 602342;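 active means mean replicate activation score at least 90 and every replicate individually at or above 90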;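 further: higher luciferase means less miR-122 activity so hits act as miR-122 inhibitors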
PglD inh SP: confirmation of Campylobacter jejuni PglD acetyltransferase inhibitors. 320 tested, under 10 active. shares compounds with PglD DTNB. inhibition, % at 20 µM. Purified C. jejuni PglD, DTNB absorbance 412 nm. AID 743156;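 active means mean inhibition across replicates of at least 20% with every single replicate also at 20% or more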;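 further: initial rate of CoA release by acetyl transfer from AcCoA to the UDP-4-amino sugar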
Large screens that a line does not name were inactive (follow-up assays come after a bar, where they were run).

O=C(Cc1cccnc1)N1CCCCN2[C@H](C1)[C@@H](c1ccc(C#CC3(O)CCCC3)cc1)[C@@H]2CO	none (no result: MITF TRPM1 HTS, Wnt bcat act)
Clc1ccccc1CN1CCNCC1	PglD DTNB 22.4 | PglD inh SP inactive
CC(C)N1CCN(Cc2cccc3c2OCO3)CC1CCO (centres undefined)	PglD DTNB 21.3 | PglD inh SP inactive
CC(C)N1CCN(Cc2cc3c(cc2Cl)OCO3)CC1CCO (centres undefined)	none
CCCNC(=O)N1[C@@H]2Cn3c(ccc(-c4ccccc4OC)c3=O)[C@H]1[C@@H](C(=O)OC)[C@@H]2CO	none (no result: MITF TRPM1 HTS, Yeast UUG start, Wnt bcat act)

Screening results as filed in PubChem BioAssay.
